Assay results published in PMC9731851, “Enhancing interaction of actin and actin-binding domain 1 of dystrophin with modulators: Toward improved gene therapy for Duchenne muscular dystrophy” (The Journal of Biological Chemistry, 2022).

Target: phalloidin-stabilized F-actin (rabbit, UniProt P68135 1-377)
Assay: co-sedimentation; 5 μM hDYS-ABD1 with phalloidin-stabilized F-actin (0–80 μM), with 100 μM cisplatin or 1% DMSO; F-buffer 10 mM Tris pH 7.5, 50 mM KCl, 0.2 mM ATP, 3 mM MgCl2, 0.5 mM DTT; 25 °C 30 min; centrifuged at 50K 30 min; SDS-PAGE of supernatant and pellet
Details: both partners purified

B1: human dystrophin actin-binding domain 1 fused to mClover3 (hDYS-ABD1-mClover3) (domain or fragment)
chain: MLWWEEVEDCYEREDVQKKTFTKWVNAQFSKFGKQHIENLFSDLQDGRRLLDLLEGLTGQKLPKEKGSTRVHALNNVNKALRVLQNNNVDLVNIGSTDIVDGNHKLTLGLIWNIILHWQVKNVMKNIMAGLQQTNSEKILLSWVRQSTRNYPQVNVINFTTSWSDGLALNALIHSHRPDLFDWNSVVCQQSATQRLEHAFNIARYQLGIEKLLDPEDVDTTYPDKKSILMYITSLFQVLPQQVSIE
notes: The introduction gives ABD1 as residues 1-246 of dystrophin in general; mClover3 (FRET donor) is fused to the C-terminus of ABD1; Cloned into pDT68 (pET-derived, N-terminal 6His then Sumo); also called mClover3-ABD1; dystrophin ABD1; source: E. coli BL21, purified (NiNTA, ULP1 cleavage of 6His-Sumo, size-exclusion chromatography); not shown: 6His, N-terminal, cleaved; Sumo, N-terminal, cleaved; …
fold difference of kD from the hyperbolic fits, cisplatin against DMSO: 1.7 fold
